Experimental data from patent publication US12528818B2, “Compositions and methods for inhibition of RAS” (Leidos Biomedical Research, Inc., priority 2021, dated 2026).

Key:
[1] = target: T1, GTP-loaded KRAS4b (amino acids 1-169) G12C/C118S protein (Homo sapiens, UniProt P01116, C118S/G12C); experiment: Covalent cysteine 12 modification by MALDI-TOF MS, GTP-loaded KRAS G12C; assay type: biochemical; details: 15 minutes reaction time, compound 95 or later using 1 μM proteins
T1 construct: KRAS4b (amino acids 1-169) G12C/C118S protein; made in house

[2] = target: GDP-loaded KRAS4b (amino acids 1-169) G12C/C118S protein (Homo sapiens, UniProt P01116, C118S/G12C); experiment: Covalent cysteine 12 modification by MALDI-TOF MS, GDP-loaded KRAS G12C; assay type: biochemical; details: 15 minutes reaction time, compound 95 or later using 1 μM proteins
[3] = target: GppNHp-loaded KRAS4b (amino acids 1-169) G12C/C118S protein (Homo sapiens, UniProt P01116, C118S/G12C); experiment: Covalent cysteine 12 modification by MALDI-TOF MS, GppNHp-loaded KRAS G12C; assay type: biochemical; details: 15 minutes reaction time, compound 95 or later using 1 μM proteins
[4] = target: Avi-KRAS G12C (1-169) GppNHp/RAF1 RBD-3xFLAG (52-151) (Homo sapiens, UniProt P01116, G12C); experiment: biochemical; details: Raf1-GppNHp-KRAS G12C disruption, Raf1 RBD-KRAS G12C-GppNHp disruption assay IC50

GTP-KRAS G12C percent of modification [1]	GDP-KRAS G12C percent of modification [2]	GppNHp-KRAS G12C percent of modification [3]	IC50 [4] [nM]	Compound
A (percent of modification ≥70%)	A (percent of modification ≥70%)	A (percent of modification ≥70%)	< 500	C=CC(=O)N1CCC(N(C)c2nc(OC[C@@H]3C[C@@H](OC)CN3C)nc3c(F)c(-c4ccc(F)c5sc(N)c(C#N)c45)ccc23)[C@H]1COC (some centres unmarked) [Compound 424]
B (50≤percent of modification <70%)	B (50≤percent of modification <70%)	A (percent of modification ≥70%)	< 500	C=CC(=O)N1CC[C@@H](N(C)c2nc(OC[C@@]34CCCN3C[C@H](F)C4)nc3cc(-c4ccc(F)c5sc(N)c(C#N)c45)c(C(F)(F)F)cc23)C1 [Compound 306]
D (percent of modification <10%)	B (50≤percent of modification <70%)	D (percent of modification <10%)	> 20000	C=CC(=O)N1C[C@H](C)N(c2nc(OC[C@@]34CCCN3C[C@H](F)C4)nc3c(F)c(-c4ccc(F)c5sc(NC(C)=O)c(C#N)c45)c(C(F)(F)F)cc23)C[C@H]1C [Compound 378]
C (10%≤percent of modification <50%)	C (10%≤percent of modification <50%)	C (10%≤percent of modification <50%)	< 500	C=CC(=O)N1CCC(N(C)c2nc(OC[C@@H]3C[C@@H](OC)CN3C)nc3c(F)c(-c4ccc(F)c5sc(N)c(C#N)c45)c(C(F)(F)F)cc23)[C@H]1C (some centres unmarked) [Compound 407]
B (50≤percent of modification <70%)	A (percent of modification ≥70%)	A (percent of modification ≥70%)	< 500	C=CC(=O)N1[C@@H](C)CN(c2nc(OC[C@@]34CCCN3C[C@H](F)C4)nc3c(F)c(-c4ccc(F)c5sc(N)c(C#N)c45)c(C(F)(F)F)cc23)C[C@@H]1C [Compound 321]
A (percent of modification ≥70%)	A (percent of modification ≥70%)	A (percent of modification ≥70%)	< 500	C=CC(=O)N1CCC(N(C)c2nc(OC[C@@]34CCCN3C[C@H](F)C4)nc3c(C#N)c(-c4ccc(F)c5sc(N)c(C#N)c45)ccc23)[C@H]1C (some centres unmarked) [Compound 404]
C (10%≤percent of modification <50%)	C (10%≤percent of modification <50%)	C (10%≤percent of modification <50%)	< 500	C=CC(=O)N1C[C@H](C)N(c2nc(OC[C@@H]3C[C@@H](F)CN3C)nc3c(F)c(-c4ccc(F)c5sc(N)c(C#N)c45)c(C(F)(F)F)cc23)C[C@H]1C [Compound 406]
A (percent of modification ≥70%)	A (percent of modification ≥70%)	A (percent of modification ≥70%)	< 500	C=CC(=O)N1CCC(N(C)c2nc(OC[C@@H]3C[C@@H](F)CN3C)nc3c(F)c(-c4ccc(F)c5sc(N)c(C#N)c45)ccc23)[C@H]1C (some centres unmarked) [Compound 429]
D (percent of modification <10%)	D (percent of modification <10%)	D (percent of modification <10%)	500 to 5000	C=CC(=O)N1CC[C@@H](N(C)c2nc(OC[C@]34CCCN3C[C@H](OC)C4)nc3c(F)c(-c4ccc(F)c5sc(N)nc45)c(C(F)(F)F)cc23)C1 (atropisomer, axis not shown) [Compound 278]
C (10%≤percent of modification <50%)	B (50≤percent of modification <70%)	C (10%≤percent of modification <50%)	< 500	C=CC(=O)N1CCC(N(CC)c2nc(OC[C@@H]3C[C@@H](OC)CN3C)nc3c(F)c(-c4ccc(F)c5sc(N)c(C#N)c45)c(C(F)(F)F)cc23)[C@H]1C (some centres unmarked) [Compound 392]
C (10%≤percent of modification <50%)	C (10%≤percent of modification <50%)	C (10%≤percent of modification <50%)	< 500	C=CC(=O)N1CCC(N(CC)c2nc(OC[C@@H]3C[C@@H](OC)CN3C)nc3c(F)c(-c4ccc(F)c5sc(N)c(C#N)c45)c(C(F)(F)F)cc23)[C@H]1COC (some centres unmarked) [Compound 427]
A (percent of modification ≥70%)	A (percent of modification ≥70%)	A (percent of modification ≥70%)	< 500	C=CC(=O)N1C[C@H](C)N(c2nc(OC[C@@]34CCCN3C[C@H](OC)C4)nc3c(F)c(-c4ccc(F)c5sc(N)c(C#N)c45)c(C(F)(F)F)cc23)C[C@H]1C [Compound 341]
A (percent of modification ≥70%)	A (percent of modification ≥70%)	A (percent of modification ≥70%)	< 500	C=CC(=O)N1CC[C@@H](N(C)c2nc(OC[C@@]34CCCN3C[C@H](F)C4)nc3cc(-c4ccc(F)c5sc(N)c(C#N)c45)c(C#N)cc23)[C@H]1COC [Compound 393]
A (percent of modification ≥70%)	A (percent of modification ≥70%)	A (percent of modification ≥70%)	< 500	C=CC(=O)N1C[C@@H](F)[C@@H](N(C)c2nc(OC[C@@]34CCCN3C[C@H](F)C4)nc3c(F)c(-c4ccc(F)c5sc(N)nc45)ccc23)C1 [Compound 353]
C (10%≤percent of modification <50%)	B (50≤percent of modification <70%)	B (50≤percent of modification <70%)	< 500	C=CC(=O)N1CC[C@@H](N(CC)c2nc(OC[C@@]34CCCN3C[C@H](F)C4)nc3c(F)c(-c4ccc(F)c5sc(N)c(C#N)c45)c(Cl)cc23)[C@H]1C [Compound 418]
C (10%≤percent of modification <50%)	B (50≤percent of modification <70%)	C (10%≤percent of modification <50%)	< 500	C=CC(=O)N1CCC(N(CC)c2nc(OC[C@@]34CCCN3C[C@H](F)C4)nc3c(C#N)c(-c4ccc(F)c5sc(N)c(C#N)c45)c(Cl)cc23)[C@H]1C (some centres unmarked) [Compound 411]
B (50≤percent of modification <70%)	A (percent of modification ≥70%)	B (50≤percent of modification <70%)	< 500	C=CC(=O)N1CCC(N(C)c2nc(OC[C@@H]3C[C@@H](OC)CN3C)nc3c(F)c(-c4ccc(F)c5sc(N)c(C#N)c45)c(C(F)(F)F)cc23)[C@H]1COC (some centres unmarked) [Compound 454]
C (10%≤percent of modification <50%)	C (10%≤percent of modification <50%)	C (10%≤percent of modification <50%)	< 500	C=C(F)C(=O)N1CC[C@@H](N(C)c2nc(OC[C@@]34CCCN3C[C@H](F)C4)nc3c(F)c(-c4ccc(F)c5sc(N)nc45)c(C(F)(F)F)cc23)C1 [Compound 308]
A (percent of modification ≥70%)	A (percent of modification ≥70%)	A (percent of modification ≥70%)	< 500	C=CC(=O)N1CC[C@@H](N(C)c2nc(OC[C@@]34CCCN3C[C@H](F)C4)nc3cc(-c4ccc(F)c5sc(N)nc45)c(C(F)(F)F)cc23)C1 [Compound 300]
A (percent of modification ≥70%)	A (percent of modification ≥70%)	A (percent of modification ≥70%)	< 500	C=CC(=O)N1CCC(N(C)c2nc(OC[C@@H]3CCCN3C)nc3cc(-c4ccc(F)c5sc(N)c(C#N)c45)c(C#N)cc23)[C@H]1COC (some centres unmarked) [Compound 455]
